## Measured affinities in a library of Ab-91 heavy chain variants

Target peptide (SARS-CoV-2 spike, HR2 region): PDVDLGDISGINAS

The variants keep the light chain, the linker and the frameworks of Ab-91 (scFv order VL, a (GGGGS)3 linker, VH).
VL: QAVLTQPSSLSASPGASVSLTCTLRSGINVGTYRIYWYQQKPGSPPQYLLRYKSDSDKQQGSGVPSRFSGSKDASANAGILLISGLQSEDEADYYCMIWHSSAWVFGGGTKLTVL
VH: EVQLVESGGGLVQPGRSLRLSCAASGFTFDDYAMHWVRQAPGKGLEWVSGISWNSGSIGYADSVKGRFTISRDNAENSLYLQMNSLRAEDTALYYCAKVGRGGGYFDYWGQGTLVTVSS

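The parent was found by panning a naive human phage display library on the peptide. AAYL51 was designed without a model: most single CDR substitutions and a random sample of double and triple ones. In AlphaSeq, yeast of one mating type display the scFv and yeast of the other type display the target. Mating (16 h, 30 °C) was followed by selection of diploids and sequencing of their barcodes. Read counts were normalised to the haploid input and turned into Kd by a linear fit to BCL2-family pairs of known affinity, for each replicate. Mating was done three times.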

Variants are written as CDR1, CDR2 and CDR3 of the heavy chain (limits as in the source). Parent: GFTFDDYAMH, GISWNSGSIGYADSVK, VGRGGGYFDY.
Every variant below is changed at D31 of the VH (sequential numbering).
Values are log10 of the apparent Kd in nM; lower means stronger binding.
Replicates are averaged; those with no signal do not enter the mean.
"no signal" marks a missing value. The strain was present, yet no cells mated with the target were sequenced in any replicate, which points to weak or no binding.
Empty control strains, which show no peptide, gave a signal in 21% of pairings with library AAYL51; the median was 4.54 and 95% of these signals were weaker than 3.26. No background was subtracted.
In this assay the parent's reference entry averaged 1.86; its copy inside this library read 0.88.

CDR-H1	CDR-H2	CDR-H3	mean log10 Kd (nM)	replicates with signal
YFTFDLYAMH	GISWNSGSKGYADSVK	VGRGGGYFDY	no signal	0 of 3
GFTFDNYAMH	GISWNSGSIGYADSVK	VGYGGIYFDY	no signal	0 of 3
GFTFDRYALH	GISWNSGSIGYADSVK	VCRGGGYFDY	2.71	3 of 3
GFTFDRYAMH	GISWNSGSIGYADSVK	VGRGGGYFPH	3.67	1 of 3
GFTFDQYAMH	GISWNSGSIGYADSVK	VGRGGGYFPY	2.90	3 of 3
GFTFDQYSMH	GISWMSGSIGYADSVK	VGRGGGYFDY	2.61	3 of 3
GFTFDEYAMH	GISWNSGSIGYADSRK	VGRGGGYHDY	no signal	0 of 3
GFTFDAYAMH	GISWNSGSIGYADSVK	VGRGGGYDDY	4.79	1 of 3
TFTFDNYAMH	GISWNSGSIGYADSDK	VGRGGGYFDY	no signal	0 of 3
GYTFDNYAMH	GISWNSGQIGYADSVK	VGRGGGYFDY	0.55	3 of 3
GFTFDEYVMH	GWSWNSGSIGYADSVK	VGRGGGYFDY	no signal	0 of 3
GFTFDLYAMH	GISWNSGSAGYADSVK	VGRGGGYFDY	no signal	0 of 3
GFTFMEYAMH	GISWNSGVIGYADSVK	VGRGGGYFDY	3.14	3 of 3
GFTFDYYAMH	GISWNSGSIGYADSVW	VGRGGGFFDY	1.57	3 of 3
GFTFDGYAMH	GISWNSRSIGYADSVK	VGRGGGYFDY	no signal	0 of 3
GFTFDLYAMH	GISANSGSIKYADSVK	VGRGGGYFDY	no signal	0 of 3
GFTFDMYAMH	GIHWNSGSTGYADSVK	VGRGGGYFDY	4.21	1 of 3
GFTFDRYAMH	GISWNEGSIGYADSVK	VGRGCGYFDY	4.55	1 of 3
GFTFDPYAMH	GGSWNSGSIGYADSVK	VGRLGGYFDY	3.79	2 of 3
GFTFDAYAMH	GISWNSGSIGYADSVK	VGRGGYYFDY	4.86	2 of 3
GFTFCNYAMH	GISWNSGSIGYADSVK	VGRGGGYFDQ	0.34	3 of 3
GFTFDWYAMH	GISWNSGSIGYADSVK	VGRGGGYFDC	2.19	3 of 3
GFTFDTYAMC	QISWNSGSIGYADSVK	VGRGGGYFDY	no signal	0 of 3
AFTFDIYAMH	GISWNSGSIGYADSVK	VGRGGGYFDC	4.06	1 of 3
GFTFDNYAMH	GISVNSGSIGYADIVK	VGRGGGYFDY	2.83	1 of 3
GFTFDSYAMY	GISWNSGSLGYADSVK	VGRGGGYFDY	no signal	0 of 3
GFTFHYYAMH	GISWNSGSIGYADSVK	TGRGGGYFDY	4.35	3 of 3
GFTFDTYAMH	GISWNSGSIGYADSVY	VGRGGGLFDY	3.87	1 of 3
GFTFDQYAMH	GISWNSGSIGYADSVK	VGGGGGYNDY	3.95	3 of 3
GFTFDAYAMH	GISWNSGSIGYIDSVK	VGNGGGYFDY	4.14	1 of 3
GFTFDAYAMH	GISSNSGSIGYWDSVK	VGRGGGYFDY	3.08	3 of 3
GFTFDFYAMH	GISWNEGSIGYADSVK	VGRGSGYFDY	3.60	3 of 3
GFTFDEYAMH	KLSWNSGSIGYADSVK	VGRGGGYFDY	5.11	2 of 3
GFTFDGYAMH	WISWNSGSIGYADSVM	VGRGGGYFDY	no signal	0 of 3
GFTFDAYAMH	GISWWSGSIGYADRVK	VGRGGGYFDY	no signal	0 of 3
GFTFDTYAMH	GISWNSGSIGYADSVK	VGRGGGYFPY	1.05	3 of 3
GSTFDNYAMH	GIHWNSGSIGYADSVK	VGRGGGYFDY	4.06	1 of 3
GFTFDHYAMH	GISWNSGSIGYADSKR	VGRGGGYFDY	no signal	0 of 3
GFTFDAYAMH	GISWNSGSIGYADSAK	VGRGGGTFDY	1.33	3 of 3
GFTFDNYAMH	GISWNHGSIGYADSVK	VGRGGGYLDY	no signal	0 of 3
GFQFDSYAMH	GISWNSGSIGYADSVK	VGRGGGYFDC	0.21	3 of 3
GFTFDPYAMH	GISWNSGSIGYADSVK	VGRGGGYCGY	2.85	3 of 3
GFTFDSYAMH	GISWNSGSIGYLVSVK	VGRGGGYFDY	no signal	0 of 3
GFTFDGYAMH	GISWNSGSAGYADSVK	GGRGGGYFDY	4.62	1 of 3
GFTFDEYAMH	GISWNSGSIGYADSVK	QGRGGEYFDY	no signal	0 of 3

From the list, the first 7 with no signal in any replicate:

CDR-H1,CDR-H2,CDR-H3,mean log10 Kd (nM),replicates with signal
YFTFDLYAMH,GISWNSGSKGYADSVK,VGRGGGYFDY,no signal,0 of 3
GFTFDNYAMH,GISWNSGSIGYADSVK,VGYGGIYFDY,no signal,0 of 3
GFTFDEYAMH,GISWNSGSIGYADSRK,VGRGGGYHDY,no signal,0 of 3
TFTFDNYAMH,GISWNSGSIGYADSDK,VGRGGGYFDY,no signal,0 of 3
GFTFDEYVMH,GWSWNSGSIGYADSVK,VGRGGGYFDY,no signal,0 of 3
GFTFDLYAMH,GISWNSGSAGYADSVK,VGRGGGYFDY,no signal,0 of 3
GFTFDGYAMH,GISWNSRSIGYADSVK,VGRGGGYFDY,no signal,0 of 3

Values reported by Engelhart et al. 2022, doi:10.1038/s41597-022-01779-4 (FLAb copy).